The nature of this data set: Dissociation constant (pKa).

pKa data for 1 compound are collected here from ChEMBL document CHEMBL1122024, “Quantitative structure-inhibitory activity relationships of phenols and fatty acids for Bacillus subtilis spore germination” (J Med Chem, 1982).

Structures are written as SMILES.

The compound `O=[N+]([O-])c1ccc([N+](=O)[O-])c(O)c1` registered a pKa of 4.1.
